{"sequences": {"note": "The chains behind the UniProt entries cited, without tags or fusion partners.", "UniProt P35968, whole entry": "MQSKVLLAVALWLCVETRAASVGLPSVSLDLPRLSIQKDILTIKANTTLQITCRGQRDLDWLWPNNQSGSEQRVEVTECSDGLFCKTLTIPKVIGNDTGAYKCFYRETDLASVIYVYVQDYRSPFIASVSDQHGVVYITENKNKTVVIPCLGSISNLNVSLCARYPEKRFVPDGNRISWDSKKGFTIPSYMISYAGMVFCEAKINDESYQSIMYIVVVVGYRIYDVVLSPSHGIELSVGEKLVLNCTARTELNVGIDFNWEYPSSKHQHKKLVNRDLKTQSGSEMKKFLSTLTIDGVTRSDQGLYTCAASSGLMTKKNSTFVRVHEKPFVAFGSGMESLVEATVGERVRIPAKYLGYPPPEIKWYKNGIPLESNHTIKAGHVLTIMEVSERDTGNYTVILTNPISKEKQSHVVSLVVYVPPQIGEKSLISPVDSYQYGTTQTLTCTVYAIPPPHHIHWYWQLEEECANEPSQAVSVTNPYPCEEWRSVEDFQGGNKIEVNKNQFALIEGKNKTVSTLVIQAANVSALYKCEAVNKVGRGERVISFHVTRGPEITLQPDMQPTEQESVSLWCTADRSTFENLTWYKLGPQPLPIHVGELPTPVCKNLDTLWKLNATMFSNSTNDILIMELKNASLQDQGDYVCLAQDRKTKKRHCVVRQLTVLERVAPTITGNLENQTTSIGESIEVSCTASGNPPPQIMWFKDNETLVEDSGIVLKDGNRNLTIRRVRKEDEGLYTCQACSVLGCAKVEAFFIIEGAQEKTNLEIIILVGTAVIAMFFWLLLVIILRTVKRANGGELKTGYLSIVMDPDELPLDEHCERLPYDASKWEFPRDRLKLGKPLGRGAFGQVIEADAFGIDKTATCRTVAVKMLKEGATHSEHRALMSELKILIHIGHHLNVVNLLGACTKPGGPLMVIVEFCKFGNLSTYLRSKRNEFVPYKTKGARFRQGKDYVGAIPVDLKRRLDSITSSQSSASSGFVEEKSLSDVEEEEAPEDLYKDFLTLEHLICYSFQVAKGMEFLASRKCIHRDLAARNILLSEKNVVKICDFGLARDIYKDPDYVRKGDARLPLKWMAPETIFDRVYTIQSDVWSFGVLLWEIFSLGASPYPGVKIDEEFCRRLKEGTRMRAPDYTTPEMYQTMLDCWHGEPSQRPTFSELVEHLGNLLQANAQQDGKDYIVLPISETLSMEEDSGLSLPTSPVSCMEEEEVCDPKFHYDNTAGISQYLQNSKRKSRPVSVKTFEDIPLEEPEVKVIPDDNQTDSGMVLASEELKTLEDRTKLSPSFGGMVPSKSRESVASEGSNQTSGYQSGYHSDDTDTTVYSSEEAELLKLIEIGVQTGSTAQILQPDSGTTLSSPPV"}, "source": "ChEMBL document CHEMBL1146769", "about": "“The discovery of N-(1,3-thiazol-2-yl)pyridin-2-amines as potent inhibitors of KDR kinase” (Bioorg Med Chem Lett, 2004)", "target": "Vascular endothelial growth factor receptor 2 (Homo sapiens, UniProt P35968)", "assay": "Inhibitory activity towards vascular endothelial growth factor receptor 2", "data": [{"smiles": "c1ccc(Nc2ncc(-c3ccccc3)o2)cc1", "note": "[GW549390X]", "values": [{"measurement": "IC50", "value": 134, "unit": "nM"}]}]}
